{
  "sequences": {"note": "Chains of the proteins cited; added tags and fusions are not shown.", "UniProt Q8TDV0, whole entry": "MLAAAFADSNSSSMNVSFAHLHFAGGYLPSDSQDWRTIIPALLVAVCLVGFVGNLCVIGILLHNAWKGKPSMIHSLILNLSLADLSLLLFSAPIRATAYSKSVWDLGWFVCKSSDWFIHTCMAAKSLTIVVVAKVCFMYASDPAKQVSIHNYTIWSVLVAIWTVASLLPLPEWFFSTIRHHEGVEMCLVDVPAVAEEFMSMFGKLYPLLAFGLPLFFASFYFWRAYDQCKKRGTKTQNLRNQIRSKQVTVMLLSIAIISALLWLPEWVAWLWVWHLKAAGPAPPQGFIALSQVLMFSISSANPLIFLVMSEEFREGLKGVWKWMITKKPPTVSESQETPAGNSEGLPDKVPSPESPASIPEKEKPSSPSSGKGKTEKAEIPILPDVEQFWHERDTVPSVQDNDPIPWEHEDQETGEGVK"},
  "source": "PubChem BioAssay AID1508609",
  "about": "(The Scripps Research Institute Molecular Screening Center, 2020)",
  "note": "The entries are a selection whose mix differs from that of the whole data set. Calls of active or inactive are those of the source.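 Rule for the calls: active = mean percent activation across replicates above the confirmation screen cutoff of 4.91%; inactive = the rest.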",
  "data": [
    {"target": "G-protein coupled receptor 151 (Homo sapiens) (UniProt Q8TDV0)", "assay": "GPR151 agonism via beta-arrestin recruitment – cell-based, PathHunter beta-arrestin, luminescence, confirmation (AID 1508609)", "conditions": "GPR151 PathHunter beta-arrestin cells, 90 min, at 11.2 µM, hits give high values, % of EA-reagent control over plate median", "values": [
      {"smiles": "CP(=O)(O)Oc1cccc(Cl)c1Cl", "activation": "inactive: 0.45%"},
      {"smiles": "CP(=O)(Nc1ccccn1)Oc1ccc(Cl)cc1", "note": "(configuration not stated)", "activation": "inactive: 0.27%"}
    ]}
  ]
}
